Laboratory results from patent US6472391B2, “Nitrogen-containing heterocyclic compounds” (Millennium Pharmaceuticals, Inc., priority 1996, dated 2002).

The chains behind the UniProt entries cited, without tags or fusion partners. Residues count along the entry.
UniProt P09619, 33-1106: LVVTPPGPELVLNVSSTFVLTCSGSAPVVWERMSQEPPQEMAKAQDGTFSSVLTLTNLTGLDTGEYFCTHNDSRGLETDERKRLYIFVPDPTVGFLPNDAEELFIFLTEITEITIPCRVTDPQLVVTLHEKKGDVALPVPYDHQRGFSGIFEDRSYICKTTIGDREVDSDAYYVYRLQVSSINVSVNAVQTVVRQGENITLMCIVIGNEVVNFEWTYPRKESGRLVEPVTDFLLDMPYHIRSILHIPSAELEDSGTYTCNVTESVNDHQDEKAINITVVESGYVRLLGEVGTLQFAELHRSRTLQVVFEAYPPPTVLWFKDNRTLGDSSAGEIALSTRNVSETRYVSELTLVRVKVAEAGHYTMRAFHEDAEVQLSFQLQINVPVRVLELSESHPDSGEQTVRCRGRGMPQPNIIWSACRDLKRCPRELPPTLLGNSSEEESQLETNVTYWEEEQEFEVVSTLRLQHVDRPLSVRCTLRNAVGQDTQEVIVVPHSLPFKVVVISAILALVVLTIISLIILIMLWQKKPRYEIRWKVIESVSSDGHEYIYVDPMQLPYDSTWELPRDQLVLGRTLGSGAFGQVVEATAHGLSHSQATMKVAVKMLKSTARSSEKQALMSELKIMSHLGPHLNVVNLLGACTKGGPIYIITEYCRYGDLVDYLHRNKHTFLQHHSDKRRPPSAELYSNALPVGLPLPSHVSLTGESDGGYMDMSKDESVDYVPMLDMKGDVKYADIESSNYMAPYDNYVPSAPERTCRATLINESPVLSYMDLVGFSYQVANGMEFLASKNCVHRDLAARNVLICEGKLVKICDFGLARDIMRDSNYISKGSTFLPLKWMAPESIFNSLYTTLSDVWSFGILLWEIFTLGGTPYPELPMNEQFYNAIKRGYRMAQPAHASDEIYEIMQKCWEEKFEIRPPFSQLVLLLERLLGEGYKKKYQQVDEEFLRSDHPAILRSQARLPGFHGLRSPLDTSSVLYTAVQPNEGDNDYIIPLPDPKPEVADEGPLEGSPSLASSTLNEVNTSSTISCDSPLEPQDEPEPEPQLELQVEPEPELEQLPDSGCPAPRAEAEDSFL

Biological target: T1, human β-PDGF receptor (Homo sapiens, UniProt P09619)
T1 construct: expressed in transfected cells; host or cells: Chinese hamster ovary cells (CHO)
Test: Inhibitory effect on phosphorylation of PDGF receptor
Assay type: cell-based
Settings: CHO cells expressing human β-PDGF receptor
Procedure: Test Example 1 Inhibitory Effect on Phosphorylation of PDGF Receptor
The test was carried out according to the method described in the literature [Dah-Shuhn et al., J. Biol. Chem., 266, 413-418 (1991)], using Chinese hamster ovary cells (CHO) wherein human β-PDGF receptor cDNA was introduced and expressed.

Row | Compound | IC50
1 | CCOC(=O)c1cnc2cc(OC)c(OC)cc2c1N1CCN(C(=O)Nc2ccc(Oc3ccccc3)cc2)CC1 [Compound 408, 4-(6,7-Dimethoxy-3-ethoxycarbonyl-4-quinolyl)-N-(4-phenoxyphenyl)-1-piperazinecarboxamide] | 210 nM
2 | O=C(Nc1ccc(Oc2ccccc2)cc1)N1CCN(c2nncc3ccccc23)CC1 [Compound 414, N-(4-Phenoxyphenyl)-4-(1-phthalazinyl)-1-piperazinecarboxamide] | 930 nM
3 | COc1cc2nncc(N3CCN(C(=O)Nc4ccc(Oc5ccccc5)cc4)CC3)c2cc1OC [Compound 426, 4-(6,7-Dimethoxy-4-cinnolinyl)-N-(4-phenoxyphenyl)-1-piperazinecarboxamide] | 1120 nM
4 | Cn1c(=O)n(C)c2cc3c(N4CCN(C(=O)Nc5ccc(Oc6ccccc6)cc5)CC4)ncnc3cc21 [Compound 121, 4-(1,3-Dihydro-1,3-dimethyl-2-oxo-2H-imidazo[4,5-g]quinazolin-8-yl)-N-(4-phenoxyphenyl)-1-piperazinecarboxamide] | 120 nM
5 | O=C(Nc1ccc(Oc2ccccc2)cc1)N1CCN(c2ccnc3cc(Cl)ccc23)CC1 [Compound 115, 4-(7-Chloro-4-quinolyl)-N-(4-phenoxyphenyl)-1-piperazinecarboxamide] | 360 nM
6 | O=C(Nc1ccc(Oc2ccccc2)cc1)N1CCN(c2ccnc3ccccc23)CC1 [Compound 394, N-(4-Phenoxyphenyl)-4-(4-quinolyl)-1-piperazinecarboxamide] | 190 nM

More lines, in order of falling IC50, values ahead:

Row | IC50 | Compound
7 | 410 nM | CCNc1cc2ncnc(N3CCN(C(=O)Nc4ccc(Oc5ccccc5)cc4)CC3)c2cc1[N+](=O)[O-] [Compound 109, 4-(7-Ethylamino-6-nitro-4-quinazolinyl)-N-(4-phenoxyphenyl)-1-piperazinecarboxamide]
8 | 340 nM | O=C(Nc1ccc(Oc2ccccc2)cc1)N1CCN(c2ncnc3ccccc23)CC1 [Compound 104, N-(4-Phenoxyphenyl)-4-(4-quinazolinyl)-1-piperazinecarboxamide]
9 | 280 nM | CCn1nnc2cc3c(N4CCN(C(=O)Nc5ccc(Oc6ccccc6)cc5)CC4)ncnc3cc21 [Compound 124, 4-(3-Ethyl-3H-1,2,3-triazolo[4,5-g]quinazolin-8-yl)-N-(4-phenoxyphenyl)-1-piperazinecarboxamide]
10 | 200 nM | O=C(Nc1ccc(Oc2ccccc2)cc1)N1CCN(c2ncnc3cc4c(cc23)OCO4)CC1 [Compound 367, 4-(6,7-Methylenedioxy-4-quinazolinyl)-N-(4-phenoxyphenyl)-1-piperazinecarboxamide]
